Experiments:
[1] = molecular target: T1, human QC (Homo sapiens, UniProt Q16769); test: Continuous spectrophotometric QC assay (glutamate dehydrogenase coupled), substrate kinetics; assay type: biochemical; conditions: for substrate inhibition;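 also: initial rates read on a microplate reader at 30 °C, with enzyme activity quantified against an ammonia calibration curve under the same assay conditions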
T1 construct: The cDNA of the mature QC starting with codon 38 was fused in frame with the plasmid encoded 6× histidine tag; 6xHis; made in house; host or cells: Pichia pastoris X33 (pPICZαB, secreted); also E. coli M15 (pQE-31)

The chains behind the UniProt entries cited, without tags or fusion partners. Residues count along the entry.
UniProt Q16769, 29-361: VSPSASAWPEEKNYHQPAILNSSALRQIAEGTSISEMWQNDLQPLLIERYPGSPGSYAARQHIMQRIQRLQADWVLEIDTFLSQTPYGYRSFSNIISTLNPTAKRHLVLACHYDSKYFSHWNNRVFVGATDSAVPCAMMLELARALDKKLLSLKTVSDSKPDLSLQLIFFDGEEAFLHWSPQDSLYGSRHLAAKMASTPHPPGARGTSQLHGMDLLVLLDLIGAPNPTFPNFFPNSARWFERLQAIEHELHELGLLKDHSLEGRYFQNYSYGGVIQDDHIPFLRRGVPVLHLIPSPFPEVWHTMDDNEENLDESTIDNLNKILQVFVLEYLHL

[2] = Aβ aggregation assay with flow cytometry; assay type: physicochemical; conditions: for fibril formation: up to 24 h
Protocol: At different times, samples were removed, diluted to 10 nM (based on the initial concentration of the monomer), and analyzed by flow cytometry. […] Fibril formation from monomeric pGlu-Aβ(3-42) was finished already after 2-3 h of incubation, implying an exceptionally high tendency to aggregation (FIG. 24-6A). The results were verified for Aβ(1-42) and pGlu-Aβ(3-42) by another set of experiments using unmodified Aβ peptides and an incubation with a fluorescence-labeled antibody (clone 4G8, Chemicon, Temecula, Calif.) prior to analysis by flow cytometry. As observed with the labeled peptides, fibril formation was virtually finished in the case of pGlu-Aβ(3-42) after 1 h of incubation (FIG. 24-6B). During time, only minor fibril formation was detected for Aβ(1-42). After 24 h, however, fibril concentration appeared to be the same as in case of pGlu-Aβ(3-42) (FIG. 24-6).
Seedless Aβ peptides were diluted to 10 μM (final total peptide concentration) into 50 mM sodium acetate, pH 5.5 containing 2 mM DTT and 100 mM NaCl and incubated at 37° C. without shaking. For fibril formation analysis, the peptides were either used as a mixture of unlabeled peptide (80%) and the respective fluorescence labeled peptide (20%) or as unlabeled peptides alone. […] In order to characterize the progress of the reaction, aliquots were removed at the indicated times, diluted to 10 nM into PBS-T (0.05% Tween-20) and analyzed. For reactions containing unlabeled peptides only, prior to flow cytometry aliquots were diluted to 5 nM into PBS-T and incubated with fluorescence labeled antibody 4G8 (Chemicon, Tececula, Calif.) at 1 nM for 1 h at 4° C.
To ensure identical conditions for all measurements, all samples were measured in TruCount Tubes (BD Biosciences) and analysis was stopped after 20,000 beads were counted. Counts were transferred into ANSMS for evaluation (Alzheimer normalized specific measurement signal: event counts from flow cytometry analysis normalized to the size of the particles, i.e. to a mean size of FS Log=250). Since there is a correlation between particle size and intensity of the fluorescence signal, it was possible to discriminate between smaller oligomeric and larger fibrillar structures in a single experiment (FIG. 25-2).

| Ki* (mM) [1] | Molecule | fibril formation ([2]; 10 μM peptide) | time until fibril formation finished ([2]; 10 μM peptide, 20% Alexa Fluor 488 labeled) | time until fibril formation virtually finished ([2]; unmodified peptide, labeled 4G8 antibody) |
| --- | --- | --- | --- | --- |
| n.i. | NC(=O)CC[C@H](N)C(=O)NCC(=O)O [H-Gln-Gly-OH] |  |  |  |
|  | Aβ(3-42): SEQ ID NO: 22 | fibril formation already after a few hours |  |  |
|  | pGlu-Aβ(3-42): N-terminally pyroglutamate-modified Aβ(3-42) | fibril formation already after a few hours | 2 to 3 h | 1 h |

Reference: patent publication US8809010B2, “Method for prophylactic treatment of alzheimer's disease using inhibitors of glutaminyl cyclase and glutamate cyclases” (Probiodrug AG, priority 2003, dated 2014)
